pIC50: −log10 of the molar value.
Biological target: T1, Cholesteryl ester transfer protein (Homo sapiens, UniProt P11597)
T1 sequence (P11597 whole entry): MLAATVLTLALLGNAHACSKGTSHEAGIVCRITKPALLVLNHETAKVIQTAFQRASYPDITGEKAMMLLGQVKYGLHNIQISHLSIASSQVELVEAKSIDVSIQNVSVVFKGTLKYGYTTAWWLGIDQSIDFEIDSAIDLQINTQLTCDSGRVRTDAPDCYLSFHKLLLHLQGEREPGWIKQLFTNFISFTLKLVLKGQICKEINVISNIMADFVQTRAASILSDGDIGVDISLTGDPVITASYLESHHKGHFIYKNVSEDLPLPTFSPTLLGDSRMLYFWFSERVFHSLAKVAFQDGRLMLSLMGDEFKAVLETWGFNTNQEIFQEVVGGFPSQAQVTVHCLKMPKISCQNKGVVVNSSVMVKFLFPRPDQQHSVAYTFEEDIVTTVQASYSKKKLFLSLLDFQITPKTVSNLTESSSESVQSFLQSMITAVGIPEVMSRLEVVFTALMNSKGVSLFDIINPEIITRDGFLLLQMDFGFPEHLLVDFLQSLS
Assay: In vitro human CETP inhibitory activity assessed by measuring the rate of [3H]cholesteryl ester ([3H]CE) from HDL donor particles to LDL acceptor particles using human serum by serum transfer assay

With CCOc1cccc(CN(CC(O)C(F)(F)F)c2cccc(Oc3ccccc3)c2)c1 (stereo unspecified) the pIC50 was 5.22.
